Here are results for three substances from US9913876B2, “Biogel” (Haemostatix Limited, priority 2006, dated 2018).

The chains behind the UniProt entries cited, without tags or fusion partners. Residues count along the entry.
UniProt P02675, 31-491: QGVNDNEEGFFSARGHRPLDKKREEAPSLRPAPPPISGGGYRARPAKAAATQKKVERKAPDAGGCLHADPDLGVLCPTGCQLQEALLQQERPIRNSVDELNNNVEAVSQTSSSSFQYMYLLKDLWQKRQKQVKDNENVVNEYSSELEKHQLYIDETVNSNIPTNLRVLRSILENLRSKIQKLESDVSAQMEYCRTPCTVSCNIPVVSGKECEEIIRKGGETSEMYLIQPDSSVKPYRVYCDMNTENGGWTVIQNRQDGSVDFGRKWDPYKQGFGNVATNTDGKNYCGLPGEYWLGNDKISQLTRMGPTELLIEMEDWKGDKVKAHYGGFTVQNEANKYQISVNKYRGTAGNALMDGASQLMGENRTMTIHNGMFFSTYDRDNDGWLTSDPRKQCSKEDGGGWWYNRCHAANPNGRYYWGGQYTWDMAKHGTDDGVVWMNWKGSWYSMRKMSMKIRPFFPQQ
UniProt P02679, 27-437 isoform P02679-2 limits assumed: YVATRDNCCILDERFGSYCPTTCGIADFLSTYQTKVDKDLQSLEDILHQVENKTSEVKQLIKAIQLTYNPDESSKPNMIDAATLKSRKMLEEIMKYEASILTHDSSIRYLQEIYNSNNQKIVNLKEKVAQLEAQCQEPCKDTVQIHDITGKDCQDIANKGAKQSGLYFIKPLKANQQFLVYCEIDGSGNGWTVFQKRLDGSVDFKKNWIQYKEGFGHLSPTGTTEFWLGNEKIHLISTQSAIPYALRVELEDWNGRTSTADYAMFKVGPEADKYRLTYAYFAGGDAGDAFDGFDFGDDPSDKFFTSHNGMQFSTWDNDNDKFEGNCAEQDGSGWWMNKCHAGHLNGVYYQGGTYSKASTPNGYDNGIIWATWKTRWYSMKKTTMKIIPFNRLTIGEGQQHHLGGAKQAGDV

The target of experiment [1] is T1, human fibrinogen (Homo sapiens, UniProt P02675+P02679).
T1 construct: purchased Scottish National Blood Transfusion Service, Edinburgh, Scotland
Kind of experiment: Visual determination of gel formation (polymerisation of fibrinogen) after mixing fibrinogen with HSA solutions (Example 2). As to conditions: 25 ul sample mixed with 0.2 ml fibrinogen at 8, 16, 32 or 64 mg/ml; after 0.5 h at room temperature. It is filed as biochemical. As for the experimental part: Human serum albumin (HSA) at 10 mg/ml was reacted with a 5, 10, 20 or 40-fold molar excess of the linker sulfosuccinimidyl-4-(N-maleimidomethyl)cyclohexane-1-carboxylate (Sulfo-SMCC) at pH 7.4 with a total volume of 0.7 ml. The modified protein (HSA-SMCC) was purified by a Zebra™ Desalt Spin Column (Pierce, Rockford, Ill.) and it was determined that on average one mole of HSA was modified with 5, 8, 16 or 18 moles of Sulfo-SMCC, respectively. To determine the number of maleimide groups bound per HSA molecule, a sample of 3 nmoles of HSA was incubated with a known amount of cysteine (100 nmoles) in buffer at room temperature for 30 min. The remaining cysteine was then reacted with 1 mmol of 5,5-dithiobis(2-nitrobenzoate) (DTNB) for 20 min and A412 was measured. The maleimide level was calculated by comparing the absorbance of the control and protein samples. Either GPRPGGGGGGC (B10; SEQ ID NO: 24) or LVPRGPRPGGGGGGC (TC-15; SEQ ID NO: 25) peptide was added to HSA-SMCC at 1.5 mole excess in relation to maleimide moieties. […] The concentration of fibrinogen and albumin was determined from the absorbance at 280 nm (A280) using a conversion factor of 1% Fibrinogen E280=15 and 1% HSA E280=13.8
The polymerisation of fibrinogen was initially monitored visually after the mixing of fibrinogen with HSA solutions. […] The formation of a gel was visually determined after 0.5 h at room temperature.

The target in experiment [2] is T1, human fibrinogen. Briefly: Gel formation on adding peptide-modified HSA to fibrinogen solution (Example 1). The experiment is classed as biochemical. As to conditions: 5 μl peptide-modified HSA (7 mg/ml) added to 0.3 ml fibrinogen solution 16 mg/ml; absence of thrombin. As for the experimental part:
Human serum albumin (HSA) was reacted with a 40-fold molar excess of the linker succinimidyl-4-(N-maleimidomethyl)cyclohexane-1-carboxylate (SMCC) at pH 7.4. The modified protein (HSA-SMCC) was purified and it was determined that on average one mole of HSA was modified with 18 moles of SMCC. Either GPRPGGGGGGC (B10; SEQ ID NO: 24) or LVPRGPRPGGGGGGC (TC-15; SEQ ID NO: 25) peptide was added to HSA-SMCC at 1.5 mole excess in relation to maleimide moieties. The peptide-modified HSA protein was then purified from un-reacted peptide and stored at −80° C. at 7 mg/ml. Lyophilised human fibrinogen was solubilized in water at 16 mg/ml as described by supplier (Scottish National Blood Transfusion service).
The exposed GPRP peptide sequence is known to bind to the “a” pocket within the carbonyl region of the two distal domains (D) of fibrinogen (FIG. 1b). It is believed that the HSA modified with multiple exposed GPRP sequences (B10) acts as a branching point for polymerisation of fibrinogen (FIG. 1c). The gel is formed in the absence of thrombin.

Consider “unmodified HSA: Human serum albumin without linker or peptide, used as control [reference compound]”, for which the “formation of a gel (polymerisation of fibrinogen), visually determined” value with human fibrinogen [1] is “no gel formation was observed”.

As for “TC-15: HSA-SMCC conjugated with blocked precursor peptide LVPRGPRPGGGGGGC (TC-15; SEQ ID NO: 25)”, the gel formation entry with human fibrinogen [2] is given as “no gel was observed”.

As to “B10-HSA: HSA-SMCC (on average 18 moles SMCC per mole HSA) conjugated with peptide GPRPGGGGGGC (B10; SEQ ID NO: 24)”, in the experiment with human fibrinogen [2], the gel formation result was “an instant gel was observed”.
